{"source": "patent US8415285B2", "about": "“Composition for the prevention or removal of insoluble salt deposits” (Ecover Coordination Center N.V., priority 2010, dated 2013)", "origin": "cited, not measured here", "settings": "cited from earlier work", "data": [{"substance": "sulfuric", "values": [{"measurement": "Solubility calcium salt g/100 ml", "result": 0.3, "unit": "g/100 ml"}]}]}
